Measured values: PubChem BioAssay AID651704 (Broad Institute, 2012)
The entries are a selection whose mix differs from that of the whole data set. Activity calls are given as the source filed them.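 How the source made its calls: active means every replicate reaching a set inhibition limit, whatever the replicate mean (cut at about 25% in these data); inconclusive means mean inhibition reaches that limit but some replicates miss it; inactive means the rest.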

Chains of the proteins cited; added tags and fusions are not shown.
UniProt P42568, whole entry: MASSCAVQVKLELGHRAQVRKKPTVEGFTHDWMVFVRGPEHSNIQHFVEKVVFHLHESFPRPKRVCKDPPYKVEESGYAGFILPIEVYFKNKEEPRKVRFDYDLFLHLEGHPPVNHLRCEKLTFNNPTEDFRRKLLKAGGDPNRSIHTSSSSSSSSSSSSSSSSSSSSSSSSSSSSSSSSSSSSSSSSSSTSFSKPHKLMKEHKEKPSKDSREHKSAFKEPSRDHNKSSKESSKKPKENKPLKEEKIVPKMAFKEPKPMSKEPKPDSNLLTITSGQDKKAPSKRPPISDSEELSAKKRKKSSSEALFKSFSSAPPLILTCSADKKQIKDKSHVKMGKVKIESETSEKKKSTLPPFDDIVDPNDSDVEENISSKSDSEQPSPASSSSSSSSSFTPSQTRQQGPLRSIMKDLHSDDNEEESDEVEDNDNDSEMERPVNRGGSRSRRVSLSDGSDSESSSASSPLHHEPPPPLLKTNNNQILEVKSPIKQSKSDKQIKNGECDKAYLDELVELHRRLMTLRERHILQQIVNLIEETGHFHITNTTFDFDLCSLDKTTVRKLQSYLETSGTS

Each compound was assayed against Protein AF-9 (Homo sapiens) (UniProt P42568) (assay: MLL-AF4/AF9 protein interaction blockers – biochemical, AlphaScreen, biotin-AF4 peptide, FLAG-AF9, single point, primary screen (AID 651704;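 further: 0% = plate neutral control median and 100% = total signal loss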)). Conditions: biotin-AF4 peptide binding to FLAG-AF9, at 10 µM, active compounds read high.

Row | Structure (SMILES) | inhibition
1 | CN(C(=O)Cc1ccc(Cl)c(Cl)c1)[C@H]1CC[C@@]2(CCCO2)C[C@@H]1N1CCCC1 | inactive: -1.06%
2 | CN(C)C(=O)c1cc([N+](=O)[O-])cc2c1-c1c(cc([N+](=O)[O-])cc1[N+](=O)[O-])C2=O | inactive: -3.09%
3 | CCOP1(=S)c2c(C)nn(CCC#N)c2N=C(c2ccc(F)cc2)N1C (stereo not drawn) | inactive: 0.101%
4 | CN(C(=O)Cc1ccccc1)[C@@H]1CC[C@]2(CCCO2)C[C@H]1N1CCCC1 | inactive: -2.53%
5 | N#CCCN(C(=O)COC(=O)C(O)(c1ccccc1)c1ccccc1)c1ccc(F)cc1 | inactive: -1.85%
6 | COc1ccccc1OP(C)(=O)Nc1cccc(Br)c1 (stereo not drawn) | inactive: 1.28%
7 | CS(=O)(=O)c1ccc(Cl)c(NC(=O)COC(=O)C(O)(c2ccccc2)c2ccccc2)c1 | inactive: 2.11%
8 | O=[As](O)(O)c1cccnc1 | inactive: -1.41%
9 | COc1cc(C(=O)NCC2(N3CCOCC3)CCCCC2)cc(Cl)c1OC(C)C | inactive: 2.75%
10 | CCOC(=O)c1ccc(NP(C)(=O)Oc2cc(C)cc(C)c2)cc1 (stereo not drawn) | inactive: -3.37%
11 | Cc1cc(C)cc(OP(C)(=O)Nc2ccc(C)cc2C)c1 (stereo not drawn) | inactive: -17.2%
12 | O=[As](O)(c1cccc(O)c1)c1cccc(O)c1 | inactive: 12.4%
13 | CCCOP(=S)(Nc1nc(N)cc(=O)[nH]1)OCCC | inactive: 0.275%
14 | Nc1cccc2c([As](=O)(O)O)cccc12 | inactive: -2.88%
15 | CP(=O)(Nc1cccc(Br)c1)Oc1ccccc1 (stereo not drawn) | inactive: -0.471%
16 | CCOP(=O)(Nc1cccc2ccccc12)OCC | inactive: -1.26%
17 | CCOP(=O)(Nc1ccc(C)cn1)OCC | inactive: -0.317%
18 | O=[N+]([O-])c1cc([N+](=O)[O-])c(-n2nnc3ccccc32)c([N+](=O)[O-])c1 | inactive: -1.15%
19 | CCOP(=O)(NC(=NC(C)c1ccccc1)NC(C)c1ccccc1)OCC (stereo not drawn) | inactive: 0.0145%
20 | Nc1ccc(CCCCOc2ccccc2)cc1.O=[N+]([O-])c1cc([N+](=O)[O-])c(O)c([N+](=O)[O-])c1 | inactive: 13.4%
21 | CCC1=CC2Cc3nc4ccc(Cl)cc4c(N)c3C(C1)C2 (stereo not drawn) | inactive: 18.9%
22 | O=C(O)C(O)c1ccc(N(CCCl)CCCl)cc1.c1ccncc1 (stereo not drawn) | inactive: 4.15%

Row | Structure (SMILES) | inhibition
23 | CC(C)(C)C(=O)NC(Sc1ncccn1)C(Cl)(Cl)Cl (stereo not drawn) | inactive: 1.07%
24 | O=P1(N(CCCl)CCCl)NCCC(C(F)(F)F)O1 (stereo not drawn) | inactive: -1.18%
25 | CN(Cc1cccnc1)C(=O)COc1ccc(Cl)c(Cl)c1.O=[N+]([O-])c1cc([N+](=O)[O-])c(O)c([N+](=O)[O-])c1 | inactive: -0.744%
26 | COc1ccccc1CNC(=O)COC(=O)C(O)(c1ccccc1)c1ccccc1 | inactive: -2.32%
27 | O=[N+]([O-])c1cc([N+](=O)[O-])c(-c2cnn(-c3ccccc3)c2)c([N+](=O)[O-])c1 | inactive: 4.88%
28 | Cc1ccc(S(=O)(=O)N(CCCN)CCCc2c(C)nc(N)[nH]c2=O)cc1.O=[N+]([O-])c1cc([N+](=O)[O-])c(O)c([N+](=O)[O-])c1 | inactive: -5.87%
29 | CC(C)/C=N\N=C(\N)N[N+](=O)[O-] | inactive: -0.523%
30 | CN(C(=O)Cc1ccc(Cl)c(Cl)c1)[C@@H]1CCCC[C@H]1N1CCCC1 | inactive: -2.74%
31 | CC1CCC(C(C)C)C(OP(=O)(Nc2ccccn2)c2ccccc2)C1 (stereo not drawn) | inactive: -3.25%
32 | Cc1ccc(C(=O)OC2CN3CCC2CC3)cc1 (stereo not drawn) | inactive: 0.648%
33 | CCCC1OP(=O)(Nc2ccccc2)OCC1CC (stereo not drawn) | inactive: 3.26%
34 | O=C(/C=C/c1ccccc1)OC1CN2CCC1CC2 (stereo not drawn) | inactive: 2.51%
35 | CCOC(=O)C(CC)C1=NC(C)(C)Cc2ccccc21.O=[N+]([O-])c1cc([N+](=O)[O-])c(O)c([N+](=O)[O-])c1 (stereo not drawn) | inactive: -2.46%
36 | CN(C)C1(CNC(=O)c2ccc(S(C)(=O)=O)cc2)CCCCC1 | inactive: 0.845%
37 | O=[N+]([O-])c1cc([N+](=O)[O-])c(Nc2nnnn2CCO)c([N+](=O)[O-])c1 | inactive: 1.06%
38 | CN1CCCCC1COC(=O)C1(O)c2ccccc2CCc2ccccc21 (stereo not drawn) | inactive: 2.23%
39 | COc1ccc(-c2ccccn2)cc1.O=[N+]([O-])c1cc([N+](=O)[O-])c(O)c([N+](=O)[O-])c1 | inactive: -7.09%
40 | O=[As](O)(c1cccs1)c1cccs1 | inactive: -0.927%
41 | NS(=O)(=O)c1cccc(NC(=O)COC(=O)C(O)(c2ccccc2)c2ccccc2)c1 | inactive: 2.28%
42 | CCCOc1ccc(NP(C)(=O)Oc2ccc(Cl)cc2)cc1 (stereo not drawn) | inactive: 1.98%
43 | Nc1cccc([As](=O)(O)c2ccccc2)c1 | inactive: -1.54%
